# Molecular target: T1, Nitric oxide synthase 3 (Bos taurus, UniProt P29473)
# T1 sequence (P29473 whole entry): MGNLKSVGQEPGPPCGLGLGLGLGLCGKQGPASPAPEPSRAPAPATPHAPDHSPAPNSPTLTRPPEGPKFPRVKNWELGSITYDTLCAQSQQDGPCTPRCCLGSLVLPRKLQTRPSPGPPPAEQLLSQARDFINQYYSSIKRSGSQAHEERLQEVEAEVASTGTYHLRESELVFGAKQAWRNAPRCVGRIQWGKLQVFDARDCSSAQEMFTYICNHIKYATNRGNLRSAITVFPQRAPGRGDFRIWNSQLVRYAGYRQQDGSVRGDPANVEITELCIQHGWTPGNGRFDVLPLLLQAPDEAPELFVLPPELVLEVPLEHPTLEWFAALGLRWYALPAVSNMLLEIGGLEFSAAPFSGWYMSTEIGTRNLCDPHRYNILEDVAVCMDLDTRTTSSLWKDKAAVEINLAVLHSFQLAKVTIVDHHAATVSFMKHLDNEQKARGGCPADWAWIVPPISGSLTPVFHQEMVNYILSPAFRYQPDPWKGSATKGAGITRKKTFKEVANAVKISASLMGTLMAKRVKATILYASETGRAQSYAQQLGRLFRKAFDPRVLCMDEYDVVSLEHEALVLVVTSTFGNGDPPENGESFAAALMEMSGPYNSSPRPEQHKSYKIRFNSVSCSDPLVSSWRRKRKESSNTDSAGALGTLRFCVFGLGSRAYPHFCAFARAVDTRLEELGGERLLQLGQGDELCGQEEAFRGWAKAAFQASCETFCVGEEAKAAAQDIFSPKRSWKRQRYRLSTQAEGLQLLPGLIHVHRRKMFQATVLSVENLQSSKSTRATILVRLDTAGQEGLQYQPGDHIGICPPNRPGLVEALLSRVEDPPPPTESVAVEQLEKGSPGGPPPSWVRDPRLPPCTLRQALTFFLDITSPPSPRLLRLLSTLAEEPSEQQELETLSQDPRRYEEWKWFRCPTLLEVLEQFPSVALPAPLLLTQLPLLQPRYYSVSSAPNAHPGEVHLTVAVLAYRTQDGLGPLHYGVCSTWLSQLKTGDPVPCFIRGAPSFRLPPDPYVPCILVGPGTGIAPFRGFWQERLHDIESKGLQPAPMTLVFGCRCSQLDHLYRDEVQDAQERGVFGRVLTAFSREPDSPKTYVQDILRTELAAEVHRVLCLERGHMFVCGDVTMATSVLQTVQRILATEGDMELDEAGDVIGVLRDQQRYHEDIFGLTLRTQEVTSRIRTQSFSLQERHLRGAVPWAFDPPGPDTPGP
# Assay: Inhibitory activity of conversion of radiolabeled arginine to citrulline by isomeric form of nitric oxide synthase Endothelial nitric oxide synthase from cultured bovine aortic endothelial cells
# Format: cell-based, Endothelial cell
# How it was run: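 eNOS taken from the CHAPS-solubilized particulate fraction of cultured bovine aortic endothelial cells. Incubated 20 min at ambient temperature with 10 μM L-[2,3-3H]arginine, 1 mM NADPH, 2 mM CaCl2 and graded inhibitor. Stopped at pH 5.5 with EGTA/EDTA; [3H]citrulline isolated on cation-exchange column and counted by scintillation. IC50.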
smiles,measurement,value
CNC(=N)NCCC[C@H](N)C(=O)O [TILARGININE],IC50,7 µM
